Data from patent US20220381657A1, “METHOD FOR PREPARING BIOLOGICAL MATERIAL HAVING EXCELLENT LIGHT-TRANSMITTING PROPERTY” (RIKEN, priority 2016, published 2022).

System: fixed brain tissue suspension
Experiment: 1st delipidation assay: solubilization of fixed brain tissue suspension, turbidity at 600 nm
Set-up: species or system mice
Conditions: Table 1; 10 wt % chemical, fixed mouse brain suspension, 37° C. overnight; PBS = 1.000

Structure (SMILES)	1st delipidation assay Relative OD600
CC(=O)O.CCCCCCCCCCCCN [#0627, Dodecylamine acetate]	0.329
CCCCCCCCC(=O)[O-].[Na+] [#0865, Sodium nonanoate]	0.155
CCCCCCCCCCCCCCCC[N+](C)(C)C.[Cl-] [#1235, Hexadecyltrimethyl- ammonium chloride]	0.332
CCCCCCCCCCCC(=O)N(C)CC(=O)[O-].[Na+] [#1466, Sodium N- lauroylsarcosinate]	0.237
